target: CBL-B (Homo sapiens, UniProt Q13191); assay: CBL-B TR-FRET IC50 screening (E1/E2 ubiquitination, Biotin-Ubiquitin, Anti GST-Tb donor / Streptavidin-d2 acceptor); conditions: read-out: CBL-B TR-FRET activity IC50; CBL-B 10 nM final; 11-point titration from 100 uM; binned A-F
Method: Example 625. IC50 Screening
• a) Thaw UBE1, UBCH5b, CBL-B, Biotin-Ubiquitin, CBL-B assay buffer, and ATP on ice. Aliquot each protein, CBL-B assay buffer, and ATP into single-use aliquots and stored at −80° C. immediately. • b) Transfer 100 mL test compound (10 mM stock solution, start at 100 uM, 1:3 dilution, 11 points) and then backfill 100 mL DMSO to each well designated for the “Test compound” by Echo. • c) Transfer 200 mL DMSO to each well designated for the “High Control”, “Low Control” by Echo. • d) Carefully calculate the amount of proteins needed. Prepare appropriate amounts of diluted proteins; dilute only the amount required for the assay. […] Keep the diluted reagents on ice until use. • e) Add 2.5 μl diluted CBL-B (40 nM) for the “High Control” and “Test compound”, the final concentration is 10 nM. For the “Low Control”, add 2.5 μL buffer each well. Pre-incubate for 15 min. • f) Centrifuge at 1000 rpm for 1 minute and shake plate at a speed of 600 rpm for 5 minutes. • g) Prepare the Master Mixture (E1E2) using diluted reagents: N wells×(1 μl Biotin-Ub+0.5 μl diluted UBE1+1 μl diluted UBCH5+5 μl ATP). Pre-incubation for 10 min. • h) Add master mixture to each well. Centrifuge at 1000 rpm for 1 minute and shake plate at a speed of 600 rpm for 5 minutes. • i) Incubate the reaction at 30° C. for 20 minutes. Cover the plate with a plate sealer. • j) Dilute Mab Anti GST-Tb cryptate donor (1:100) and Streptavidin-d2 acceptor (1:100) using PPI-Terbium detection buffer. Prepare only the amount required for the assay Add 5 μL diluted donor and 5 μL acceptor mixture into each well. Centrifuge at 1000 rpm for 1 minute and shake plate at a speed of 600 rpm for 5 minutes. Incubate at room temperature for one hour. • k) Read the fluorescent intensity with EnVison2104 (PerkinElmer Life Sciences). Blank value is subtracted from all other values. Tb-donor emission should be measured at 615 nM followed by dye-acceptor emission at 665 nm. […]

The chains behind the UniProt entries cited, without tags or fusion partners.
UniProt Q13191, whole entry: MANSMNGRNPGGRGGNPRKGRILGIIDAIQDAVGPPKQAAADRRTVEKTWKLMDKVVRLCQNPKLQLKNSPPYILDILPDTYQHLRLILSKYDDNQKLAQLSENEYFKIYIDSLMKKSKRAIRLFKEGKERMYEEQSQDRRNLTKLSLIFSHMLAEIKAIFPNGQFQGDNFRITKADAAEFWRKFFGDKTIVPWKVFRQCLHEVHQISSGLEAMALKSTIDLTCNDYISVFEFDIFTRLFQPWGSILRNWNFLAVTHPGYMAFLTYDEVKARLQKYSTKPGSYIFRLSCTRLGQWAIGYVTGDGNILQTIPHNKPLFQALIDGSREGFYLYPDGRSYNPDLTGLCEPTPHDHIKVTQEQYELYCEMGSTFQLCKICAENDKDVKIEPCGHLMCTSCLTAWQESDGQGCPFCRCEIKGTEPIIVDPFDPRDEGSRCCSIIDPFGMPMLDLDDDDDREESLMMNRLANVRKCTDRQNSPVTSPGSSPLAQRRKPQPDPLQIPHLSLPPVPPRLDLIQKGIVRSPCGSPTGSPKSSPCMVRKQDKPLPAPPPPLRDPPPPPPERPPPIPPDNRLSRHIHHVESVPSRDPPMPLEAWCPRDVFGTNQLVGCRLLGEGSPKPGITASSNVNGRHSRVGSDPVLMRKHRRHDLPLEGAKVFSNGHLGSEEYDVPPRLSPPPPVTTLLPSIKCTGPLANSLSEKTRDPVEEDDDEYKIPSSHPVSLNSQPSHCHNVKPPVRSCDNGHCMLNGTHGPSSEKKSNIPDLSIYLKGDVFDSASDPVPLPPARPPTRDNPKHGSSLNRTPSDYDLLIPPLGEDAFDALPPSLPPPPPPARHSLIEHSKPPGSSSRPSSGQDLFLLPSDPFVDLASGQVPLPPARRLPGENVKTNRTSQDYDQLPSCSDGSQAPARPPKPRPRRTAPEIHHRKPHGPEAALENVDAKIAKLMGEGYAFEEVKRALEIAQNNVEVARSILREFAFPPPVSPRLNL

Compound | IC50
Cc1c[nH]nc1CC1(c2cccc(-n3cc4c(C(F)(F)F)cc(Br)cn4c3=O)c2)COC1 | 301 to 1000 nM
Cc1c[nH]nc1[C@H](c1cccc(-n2cc3c(C(F)(F)F)cc(CN4CCC[C@H](C)C4)cn3c2=O)c1)C1CCC1 | 1000 to 3000 nM
Cc1c[nH]nc1C1(c2cccc(-n3cc4c(C(F)(F)F)cc(CN5CCC[C@H](C)C5)cn4c3=O)c2)CC2(CC2)C1 | 100 to 300 nM

From patent US20240228482A1, “COMPOUNDS, COMPOSITIONS AND METHODS OF TREATING CANCER” (HOTSPOT THERAPEUTICS, INC., priority 2021, published 2024)
